What was measured:
[1] = system: opiate receptor (OpR); format: binding, rat
[2] = system: opiate receptor (OpR); format: binding, rat; remark: listed apart in the source

Compound: C=CCN1CC[C@]23c4c5ccc(O)c4O[C@H]2C(=O)CC[C@@]3(O)[C@H]1C5 [Naloxone]
- pmol Bound/mg Protein [1]: 0.020
- Δ% (difference between resistance changes of test and control chips) [2]: 17%
- ΔK.OMEGA. (change in resistance across the biosensor circuit) [2]: -147

Source: patent US5192507A (priority 1991, dated 1993)
